Rows were chosen to be rich in hits. Some 0.46% of all compounds tested hit in one or more screens of this group.
GIV Gai3 FP: GIV-Galpha-i interaction inhibition. 210,000 compounds, 0.42% hits. percent of control (FP), % (no concentration beside the values). Galpha-i3/FITC-GIV peptide fluorescence polarization, 90 min; active compounds read low; scaled: aluminum fluoride 0%, vehicle 100%. AID 1224905. P08753;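 active = replicate mean at 85% of control or lower, very high polarization wells dropped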;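 note: wells of about 15 µL received 100 nL stock; the first replicate is given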
HCMV UL50-53 inh: inhibitors of HCMV UL50-UL53 nuclear egress complex interaction. HTRF UL50-UL53 interaction, normalized percent inhibition. inhibition, % (concentration not given with the values). 190,000 compounds, 0.15% hits; in the data active means inhibition above about 27%, passing the limit was not always enough
GIV Gai FP conf: confirmation of inhibitors of GIV binding to rat Galpha-i3 | fluorescence polarization, mP at 100 µM | 580 compounds, 38% hits | FITC-GIV peptide binding to Galphai3, fluorescence polarization; hits give low values | shares compounds with GIV Gai3 FP;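 active means inhibition score of 15 or more, meaning 100 minus mean polarization as percent of control over three replicates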;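 further: lower mP means peptide displaced from Galphai3 so more inhibition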
GIV-Gai AS conf: confirmation of inhibitors of GIV binding to human Galpha-i3; shares compounds with GIV Gai3 FP; AlphaScreen Galphai3-GIV binding, purified proteins, 90 min; hits give low values; AlphaScreen counts at 100 µM; 580 compounds, 39% hits; AID 1259351;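 active means inhibition score at or above a set limit, where the score is 100 minus the three-replicate mean percent of control signal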
An asterisk follows results filed as active; nt = no result; ! = not confirmed by another sample.

# | structure | GIV Gai3 FP | HCMV UL50-53 inh | GIV Gai FP conf | GIV-Gai AS conf
1 | COc1cccc(-c2nc3c4ccccc4ncn3n2)c1 | 78* | -9 | 66 | 41785
2 | COc1ccccc1-c1nc2c3ccccc3ncn2n1 | 113 | -16 | nt | nt
3 | Nc1nnc(-c2ccc3nsnc3c2)o1 | 106 | 2 | nt | nt
4 | Nc1ccc2nsnc2c1 | 46* | 96* | 5.4* | 3926*
5 | C=CCSc1nc2ccccc2n1C(=O)CN1C(=O)c2ccccc2C1=O | 100 | -28 | nt | nt
6 | COc1ccccc1CNc1nc2ccccc2nc1S(=O)(=O)c1ccc(C)cc1 | 114 | -22 | nt | nt
7 | Cc1ccc(S(=O)(=O)c2nc3ccccc3nc2NCCc2ccccc2)cc1 | 78* | -24 | 65 | 42344
8 | CN(C)c1ccc(-c2nc3c([nH]2)c(=O)n(C)c(=O)n3C)cc1 | 75* | nt | 85 | 28569
9 | Cn1c(=O)c2[nH]c(-c3ccccc3)nc2n(C)c1=O | 99 | -21 | nt | nt
10 | COc1cccc(C2=CC(c3ccccc3F)n3c(nc4ccccc43)N2)c1 (stereo not drawn) | 101 | nt | nt | nt
11 | COc1ccccc1C1C=C(c2cccnc2)Nc2nc3ccccc3n21 (stereo not drawn) | 69* | -52 | 48* | 30087
12 | NCCCOCc1ccco1 | nt | 7 | nt | nt
13 | O=C(CCC1CCCCC1)Nc1ccc(O)cc1 | 104 | -8 | nt | nt
14 | CCOC(=O)CC(=O)CSc1nc(-c2cccs2)cc(-c2cccs2)c1C#N | 115 | nt | nt | nt
15 | CCOC(=O)CC(=O)CSc1nc2c(c(-c3cccs3)c1C#N)CCC2 | 96 | nt | 68 | 43008
16 | COc1cc(/C=C2/C(=O)N(c3ccc(C(=O)O)cc3)N=C2C)cc(Br)c1OCc1ccccc1 | 102 | nt | nt | nt
17 | Cc1ccc(C(=O)NC2(O)C(=O)c3ccccc3C2=O)cc1C | 57* | 59* | 45* | 46487
18 | O=C(Cc1ccccc1)NC1(O)C(=O)c2ccccc2C1=O | 61* | 50* | 52* | 45267
19 | O=C(O)CNC(=O)Cc1ccccc1 | 104 | -15 | nt | nt
20 | O=C(NC1(O)C(=O)c2ccccc2C1=O)c1ccc(C(F)(F)F)cc1 | 56* | 58* | 61 | 32539
21 | O=C(NCCc1ccccc1)c1ccccn1 | nt | -34 | nt | nt
22 | Cc1ccc(C(=O)O)cc1NC1(c2ccccc2)C(=O)c2ccccc2C1=O | 98 | nt | nt | nt
23 | O=C(NO)c1ccc(C(F)(F)F)cc1 | nt | -10 | nt | nt
24 | O=C(NC1(O)C(=O)c2ccccc2C1=O)c1ccccn1 | 74* | 36 | 68 | 36588
25 | COc1ccccc1CNc1ccc(C(=O)N2CCN(C)CC2)cc1S(=O)(=O)Nc1cccc(C(F)(F)F)c1 | 103 | nt | nt | nt

# | structure | GIV Gai3 FP | HCMV UL50-53 inh | GIV Gai FP conf | GIV-Gai AS conf
26 | CCCCCCSc1nnc(/N=C/NO)s1 | 104 | -4 | nt | nt
27 | Cc1cccc(C2N=C(c3cnccn3)NN2)c1 (stereo not drawn) | 102 | -112 | nt | nt
28 | O=S(=O)(c1ccccc1)c1nnn2c1nc(NCc1ccc3c(c1)OCO3)c1sccc12 | 105 | 16 | nt | nt
29 | COc1ccc(NC(=O)CN2NS(=O)(=O)c3ccccc3C2=O)cc1Cl | nt | -24 | nt | nt
30 | CCN1C=CC2=C(C#N)C(N)C(C#N)(C#N)C(c3cccs3)C2C1 (stereo not drawn) | 65* | -51 | 64 | 28433
31 | CCOC(=O)N1CC=C2C(C#N)=C(N)C(C#N)(C#N)C(c3cccs3)C2C1 (stereo not drawn) | 107 | nt | nt | nt
32 | CCOC(=O)c1c(NC(=O)c2nc(S(=O)(=O)CC)ncc2Cl)sc2c1CCCC2 | 97 | -2 | nt | nt
33 | CCCS(=O)(=O)c1ncc(Cl)c(C(=O)Nc2sc3c(c2C(=O)OCC)CCCC3)n1 | 76* | 7 | 62 | 44265
34 | CCc1ccc(C(=O)NC(Cc2c[nH]c3ccccc23)C(=O)OCC(=O)c2ccccc2)cc1 (stereo not drawn) | 85* | nt | 61 | 46081
35 | CCc1ccc(C(=O)NC(Cc2c[nH]c3ccccc23)C(=O)OCC(=O)c2ccc(OC)cc2)cc1 (stereo not drawn) | 104 | nt | nt | nt
36 | CCOc1ccc(Nc2c3c4c(cccc4[nH]c2=O)C(=O)c2ccccc2-3)cc1 | 32* | -30 | 28* | 39358
37 | COc1ccc(Nc2c3c4c(cccc4n(C)c2=O)C(=O)c2ccccc2-3)cc1 | 103 | nt | nt | nt
38 | CCC(=O)Nc1cccc(-c2nc3ccccc3o2)c1 | nt | -7 | nt | nt
39 | O=C(Nc1cccc(-c2nc3ccccc3o2)c1)C(F)(F)F | 70* | -56 | 75 | 32747
40 | Oc1ccccc1C1=Nc2ccccc2N=C(c2ccc(Cl)cc2)C1 | 72*! | -1 | 68 | 44887
41 | Oc1ccc(Cl)cc1C1=Nc2ccccc2N=C(c2ccc(Cl)cc2)C1 | 99 | nt | nt | nt
42 | CCOC(=O)C1=NN(c2cccc(Cl)c2)C2(S1)c1ccccc1C(c1ccc(CC)cc1)=NN2c1ccccc1 (stereo not drawn) | 105 | nt | nt | nt
43 | O=C(Nc1cccc2nsnc12)c1nc2ccccc2nc1N1CCCC1 | 100 | -37 | nt | nt
44 | O=C(Nc1cccc2nsnc12)c1nc2ccccc2nc1N1CCOCC1 | 28* | -26 | 69 | 40962
45 | Cc1ccc2oc(-c3ccc4c(c3)OCO4)cc(=NC(C)C(=O)O)c2c1 (stereo not drawn) | nt | -87 | nt | nt
46 | O=C1c2cc(S(=O)(=O)N3CCCCC3)cc([N+](=O)[O-])c2-c2c1cc(S(=O)(=O)N1CCCCC1)cc2[N+](=O)[O-] | 109 | nt | nt | nt
47 | O=[N+]([O-])c1cc(S(=O)(=O)O)cc2c1-c1c(cc(S(=O)(=O)O)cc1[N+](=O)[O-])C2 | 86 | nt | 62 | 17742*
48 | NC(=O)CSc1nc(N)cc(N)n1 | nt | 13 | nt | nt
49 | O=C(NCCn1c(-c2ccccc2)nc2cccnc21)c1ccc(Cl)cc1 | 110 | -17 | nt | nt
50 | CN(C)CCNC(=O)c1ccc(-n2c(-c3ccccc3)nc3cccnc32)cc1 | 83* | -15 | 60 | 33901

Taken from above.
For GIV Gai FP conf, O=[N+]([O-])c1cc(S(=O)(=O)O)cc2c1-c1c(cc(S(=O)(=O)O)cc1[N+](=O)[O-])C2 has the entry 62
For GIV Gai3 FP, O=C(Nc1cccc(-c2nc3ccccc3o2)c1)C(F)(F)F has the entry 70*
For HCMV UL50-53 inh, O=C(NCCn1c(-c2ccccc2)nc2cccnc21)c1ccc(Cl)cc1 has the entry -17
For GIV Gai FP conf, CCN1C=CC2=C(C#N)C(N)C(C#N)(C#N)C(c3cccs3)C2C1 (stereo not drawn) has the entry 64

Given with each value named: entries from further up
35. CCc1ccc(C(=O)NC(Cc2c[nH]c3ccccc23)C(=O)OCC(=O)c2ccc(OC)cc2)cc1 (stereo not drawn)
- GIV Gai3 FP = 104
- HCMV UL50-53 inh = nt
- GIV Gai FP conf = nt
- GIV-Gai AS conf = nt
8. CN(C)c1ccc(-c2nc3c([nH]2)c(=O)n(C)c(=O)n3C)cc1
- GIV Gai3 FP = 75*
- HCMV UL50-53 inh = nt
- GIV Gai FP conf = 85
- GIV-Gai AS conf = 28569

Other results:
# | structure | GIV Gai3 FP | HCMV UL50-53 inh | GIV Gai FP conf | GIV-Gai AS conf
51 | Cn1c(=O)c2c(ncn2CC(O)CN2C(=O)c3ccccc3S2(=O)=O)n(C)c1=O (stereo not drawn) | 109 | -5 | nt | nt
52 | COc1ccc(/C=C2\N=C(c3ccc(Cl)cc3)N(c3ccccc3)C2=O)cc1OC | 81* | nt | 81 | 50234
53 | COc1ccc(/C=C2\N=C(c3ccc(Cl)cc3)N(c3ccc(C)cc3C)C2=O)cc1OC | 109 | nt | nt | nt
54 | COc1ccc(/C=C2\N=C(c3ccc(Cl)cc3)N(c3cccc(C)c3)C2=O)cc1OC | 117 | nt | nt | nt
55 | COc1ccc(/C=C2\N=C(c3ccc(Cl)cc3)N(c3cccc(F)c3)C2=O)cc1OC | 88 | nt | 79 | 49008
56 | Cc1ccc(C(=O)N(C)CCc2noc(C(=O)NCc3ccccc3)n2)cc1 | 101 | nt | nt | nt
57 | O=C(NCCc1ccccc1)c1sc(=S)n2c1[nH]c(=O)c1ccccc12 | 86 | nt | 65 | 13551*
58 | O=C(NC1CCCCC1)c1sc(=S)n2c1[nH]c(=O)c1ccccc12 | 101 | -43 | nt | nt
59 | COc1ccc(/C(O)=C/c2nc3cc(C)ccc3oc2=O)c(OC)c1 | 54* | -23 | 147 | 40985
60 | Cc1ccc2oc(=O)c(/C=C(\O)c3ccco3)nc2c1 | 109 | -24 | nt | nt
61 | Cc1nn(-c2ccc(Cl)cc2)c2sc(C(=O)NC3CCCc4ccccc43)cc12 (stereo not drawn) | 102 | nt | nt | nt
62 | Cc1nn(-c2ccccc2)c2sc(C(=O)NC(=S)NC3CCSC3=O)cc12 (stereo not drawn) | 85* | nt | 64 | 15795*
63 | CC(=O)NC1CC(C)(C)N(O)C(C)(C)C1 | 110 | nt | nt | nt
64 | COCC(C)NC(=O)Nc1cn(C)c2ccccc12 (stereo not drawn) | 105 | -28 | nt | nt

Assay outcomes from PubChem.
